Reference: patent publication US5733913A, “6-Aryl pyrido[2,3-d] pyrimidines and naphthyridines for inhibiting protein tyrosine kinase mediated cellular proliferation” (priority 1995, dated 1998)

By UniProt entry, the sequences of proteins in these tests, tags left out. Residues count along the entry.
UniProt P11362, 478-767 limits assumed: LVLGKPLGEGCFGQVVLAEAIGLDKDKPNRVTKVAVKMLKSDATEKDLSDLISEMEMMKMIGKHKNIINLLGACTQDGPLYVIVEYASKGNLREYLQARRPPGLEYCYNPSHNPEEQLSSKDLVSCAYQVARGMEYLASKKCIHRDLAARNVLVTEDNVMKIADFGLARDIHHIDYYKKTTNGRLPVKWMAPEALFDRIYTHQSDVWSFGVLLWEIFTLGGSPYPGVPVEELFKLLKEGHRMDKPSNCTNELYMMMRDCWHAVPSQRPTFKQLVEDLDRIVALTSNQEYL

Target: T1, human FGF-1 (flg) receptor tyrosine kinase (Homo sapiens, UniProt P11362)
T1 construct: a fragment of DNA that codes for the intracellular tyrosine kinase domain; made in house; host or cells: Sf9 insect cells (baculovirus), cell lysate
Test: FGF receptor tyrosine kinase assay
Assay type: biochemical

COc1ccc(NC(=O)Nc2nc3nc(NCCCN4CCN(C)CC4)ncc3cc2-c2c(Cl)cccc2Cl)cc1 [Example 41, 1-{6-(2,6-Dichlorophenyl)-2-[3-(4-methyl-piperazin-1-yl)-propylamino]-pyrido[2,3-d]pyrimidin-7-yl}-3-(4-methoxy-phenyl)-urea]
IC50: 139 nM
